# Test results taken from PubChem BioAssay AID602281 (The Scripps Research Institute Molecular Screening Center, 2012).
# Sequences of proteins named here, by UniProt entry; tags and fusion partners are left off.
# UniProt Q00G26, whole entry, looked up: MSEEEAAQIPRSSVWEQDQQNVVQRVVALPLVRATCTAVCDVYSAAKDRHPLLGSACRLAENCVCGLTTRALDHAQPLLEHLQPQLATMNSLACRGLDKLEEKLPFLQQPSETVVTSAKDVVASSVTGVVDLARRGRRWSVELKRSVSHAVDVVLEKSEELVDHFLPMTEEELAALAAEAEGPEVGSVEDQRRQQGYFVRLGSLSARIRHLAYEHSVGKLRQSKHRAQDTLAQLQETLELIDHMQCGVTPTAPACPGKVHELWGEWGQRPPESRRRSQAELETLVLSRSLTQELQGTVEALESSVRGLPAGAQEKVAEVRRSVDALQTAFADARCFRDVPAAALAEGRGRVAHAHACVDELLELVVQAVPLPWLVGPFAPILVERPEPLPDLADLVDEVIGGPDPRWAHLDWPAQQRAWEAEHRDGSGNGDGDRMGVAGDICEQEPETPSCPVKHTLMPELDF
# UniProt Q8WTS1, whole entry, looked up: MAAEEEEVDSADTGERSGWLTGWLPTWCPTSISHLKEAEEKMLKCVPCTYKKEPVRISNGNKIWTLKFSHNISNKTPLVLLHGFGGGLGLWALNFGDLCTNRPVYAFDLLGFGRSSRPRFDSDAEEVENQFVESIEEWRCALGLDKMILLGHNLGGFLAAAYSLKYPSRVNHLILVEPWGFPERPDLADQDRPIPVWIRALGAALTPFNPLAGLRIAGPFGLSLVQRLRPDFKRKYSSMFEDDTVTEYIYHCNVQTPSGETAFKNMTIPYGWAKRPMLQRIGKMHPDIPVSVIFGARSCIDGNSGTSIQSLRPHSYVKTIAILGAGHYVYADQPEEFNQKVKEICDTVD
# Only a part is listed here, and it is no random draw. Some results for these compounds are left out of this collection, so the calls shown say nothing about other tests. The source made the active and inactive calls.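 The calls were made as follows: active = inhibition above the mean inhibition across every tested compound plus 3 SD (cut at about 22% in these data); inactive = the rest.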
# Target: Perilipin-5 (Homo sapiens) + 1-acylglycerol-3-phosphate O-acyltransferase ABHD5 (Homo sapiens) (UniProt Q00G26+Q8WTS1)
# Assay: blockers of ABHD5 binding to perilipin-5 – cell lysate, split luciferase complementation, luminescence, primary screen (AID 602281);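 also: 0% = DMSO only wells and the 100% control is not disclosed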
# Conditions: Split G. princeps luciferase complementation, 4 h, at 4 µM, hits give high values
row,Structure (SMILES),inhibition
1,O=C(NCC1(N2CCCCC2)CCCCC1)c1cccc(Br)c1,inactive: 7.46%
2,CCN1CCCC(OC(=O)C2(O)c3ccccc3C=Cc3ccccc32)C1 (stereo unspecified),inactive: 0.96%
3,Cc1cc(C(=O)NCC2(N3CCCCC3)CCCCC2)ccc1[N+](=O)[O-],inactive: -0.78%
4,COc1ccc(C(=O)NCC2(N(C)C)CCCCC2)cc1,inactive: 5.34%
5,O=C(NCC1(N2CCCCC2)CCCCC1)c1cc(F)c(F)cc1Cl,inactive: 5.35%
6,C=CCN1CCN(CCOC(=O)C(O)(c2ccccc2)c2ccccc2)CC1,inactive: 6.28%
7,CN(C)c1ccc(C(=O)NCC2(N(C)C)CCCCC2)cc1,inactive: 4.98%
8,CN(C)C1CCCC1OC(=O)C(O)(c1ccccc1)c1ccccc1 (stereo unspecified),inactive: 1.86%
9,Cc1ccccc1C(=O)NCC1(N2CCCCC2)CCCCC1,inactive: -0.81%
10,Cc1ccc(C(=O)NCC2(N3CCCCC3)CCCCC2)cc1,inactive: -1.88%
11,CC(C)N1C(=O)CC2(CCN(CCOC(=O)C(O)(c3ccccc3)c3ccccc3)CC2)C1=O,inactive: 0.8%
12,COc1cc(SC)ccc1C(=O)NCC1(N(C)C)CCCCC1,inactive: 1.21%
13,CCN(CC)CC(C)C(C)OC(=O)C(O)(c1ccccc1)c1ccccc1 (stereo unspecified),inactive: -0.9%
14,CN1[C@@H]2CC[C@H]1CC(OC(=O)C(O)(c1ccccc1)c1ccccc1)C2 (stereo partly specified),inactive: 1.16%
15,O=C(NCC1(N2CCCCC2)CCCCC1)c1cc([N+](=O)[O-])ccc1Cl,inactive: 1.23%
16,CN(C)c1cccc(C(=O)NCC2(N(C)C)CCCCC2)c1,inactive: -4.61%
17,O=C(OCCN1CCCC1)C(O)(c1ccccc1)c1ccccc1,inactive: 0.95%
18,CC(C)Oc1ccc(C(=O)NCC2(N(C)C)CCCCC2)cc1,inactive: -0.83%
19,COc1ccc(Br)c(C(=O)NCC2(N3CCCCC3)CCCCC2)c1,inactive: -1.41%
20,C=C(C)C#CC(O)(C(=O)OC1CCN(C)CC1)c1ccccc1 (stereo unspecified),inactive: 3.8%
21,O=C(OC1CN2CCC1CC2)C(CO)(c1ccccc1)c1ccccc1 (stereo unspecified),inactive: 3.08%
22,O=C(NCC1(N2CCCCC2)CCCCC1)c1cccc(Cl)c1,inactive: 4.37%
23,COc1ccc(Cl)cc1C(=O)NCC1(N(C)C)CCCCC1,inactive: -7.88%
24,COc1cccc(C(=O)NCC2(N3CCCCC3)CCCCC2)c1,inactive: -0.21%
25,COc1cc(C(=O)NCC2(N(C)C)CCCCC2)c([N+](=O)[O-])cc1OC,inactive: 0.54%
26,CN(C)C1(CNC(=O)c2ccc(Br)cc2)CCCCC1,inactive: 4.35%
